According to US9315491B2 (DEVELOPMENT CENTER FOR BIOTECHNOLOGY, priority 2009, dated 2016):

What was measured:
[1] = tested on: PC-3 cells; assay: Antiproliferation assay (MTS), PC-3; format: cell-based; conditions: Homo sapiens, PC3, 72 hours of drug treatment
Protocol: (1) Antiproliferation Assay
PC-3, U-87 MG, HCC1954 and BT474 cell lines were purchased from the American Type Culture Collection (ATCC, USA). PC-3 was grown in F12K medium (GIBCO) containing 10% FBS. U-87 MG was grown in Eagle's minimum essential medium (MEM, Sigma) supplemented with nonessential amino acids, L-glutamine, sodium pyruvate, and 10% FBS. HCC1954 was grown in RPMI medium (GIBCO) containing 10% FBS. […] All cells were incubated in a humidified atmosphere containing 5% CO2 at 37° C.
Cell lines were inoculated to the wells of a 96-well culture plate with 1000-5000 cells per well. The compounds were prepared and used to treat cells with less than 1% DMSO. After 72 hours of drug treatment, the viability of each cell line was examined by CellTiter 96 Aqueous Non-Radioactive Cell Proliferation Assay (Promega). The living cells were detectable by conversion of MTS into aqueous, soluble formazan. MTS/PMS solution was freshly prepared and 20 μl of MTS/PMS solution was added to each well of the 96-well cultured plate. The assay plate was incubated for 3 hours and the absorbance at 490 nm was measured by EMax ELISA Reader (Molecular Devices). The IC50 values of compounds were determined after carrying out assays at eight serially diluted concentrations of each compound in triplicate, and are the mean of three separate determinations. The results were analyzed using linear regression software (GraphPad Prism 5; GraphPad Software Inc.).

[2] = tested on: A549 cells; assay: Antiproliferation assay (MTS), A549; format: cell-based; conditions: Homo sapiens; A549, 72 hours of drug treatment

Structure (SMILES)	IC50 [1]	IC50 [2]
CCOC(=O)c1nc(-c2ccc(NC(=O)Nc3ccc(S(N)(=O)=O)cc3)cc2)nc(N2CCOCC2)c1OCC [MTR-0273, 5-Ethoxy-6-morpholin-4-yl-2-{4-[3-(4-sulfamoyl-phenyl)-ureido]-phenyl}-pyrimidine-4-carboxylic acid ethyl ester]	162 ± 6 nM	660 ± 40 nM
O=C(Nc1ccc(-c2ncc(OCCN3CCOCC3)c(N3CCOCC3)n2)cc1)Nc1ccc(N2CCOCC2=O)cc1 [MTR-0455, 1-{4-[4-Morpholin-4-yl-5-(2-morpholin-4-yl-ethoxy)-pyrimidin-2-yl]-phenyl}-3-[4-(3-oxo-morpholin-4-yl)-phenyl]-urea]	72 ± 2 nM	309 ± 16 nM
CCOC(=O)c1nc(-c2ccc(NC(=O)Nc3cccnc3)cc2)nc(N2CCOCC2)c1OCC [MTR-0205, 5-Ethoxy-6-morpholin-4-yl-2-[4-(3-pyridin-3-yl-ureido)-phenyl]-pyrimidine-4-carboxylic acid ethyl ester]	130 ± 5 nM	673 ± 19 nM
CSc1cnc(-c2ccc(NC(=O)Nc3ccc(C(N)=O)cc3)cc2)nc1N1CCOCC1 [MTR-0267, 4-{3-[4-(5-Methylsulfanyl-4-morpholin-4-yl-pyrimidin-2-yl)-phenyl]-ureido}-benzamide]	207 ± 7 nM	3490 ± 156 nM
CCOc1cnc(-c2ccc(NC(=O)Nc3ccc(S(=O)(=O)N4CCOCC4)cc3)cc2)nc1N1CCOCC1 [MTR-0452, 1-[4-(5-Ethoxy-4-morpholin-4-yl-pyrimidin-2-yl)-phenyl]-3-[4-(morpholine-4-sulfonyl)-phenyl]-urea]	32 ± 1 nM	82 ± 3 nM
COc1cnc(-c2ccc(NC(=O)Nc3ccc(N4CCOCC4=O)cc3)cc2)nc1N1CCOCC1 [MTR-0241, 1-[4-(5-Methoxy-4-morpholin-4-yl-pyrimidin-2-yl)-phenyl]-3-[4-(3-oxo-morpholin-4-yl)-phenyl]-urea]	61 ± 4 nM	129 ± 5 nM
CSc1c(Cl)nc(-c2ccc(NC(=O)Nc3ccc(C(=O)N4CCC(N(C)C)CC4)cc3)cc2)nc1N1CCOCC1 [MTR-0436, 1-[4-(4-Chloro-5-methylsulfanyl-6-morpholin-4-yl-pyrimidin-2-yl)-phenyl]-3-[4-(4-dimethylamino-piperidine-1-carbonyl)-phenyl]-urea]	78 ± 4 nM	299 ± 10 nM
CCOC(=O)c1nc(-c2ccc(NC(=O)Nc3ccc(N4CCOCC4)c(F)c3)cc2)nc(N2CCOCC2)c1OCC [MTR-0221, 5-Ethoxy-2-{4-[3-(3-fluoro-4-morpholin-4-yl-phenyl)-ureido]-phenyl}-6-morpholin-4-yl-pyrimidine-4-carboxylic acid ethyl ester]	327 ± 43 nM	710 ± 76 nM
NC(=O)c1ccc(NC(=O)Nc2ccc(-c3ncc(OCCN4CCOCC4)c(N4CCOCC4)n3)cc2)cc1 [MTR-0456, 4-(3-{4-[4-Morpholin-4-yl-5-(2-morpholin-4-yl-ethoxy)-pyrimidin-2-yl]-phenyl}-ureido)-benzamide]	362 ± 25 nM	2090 ± 34 nM
COc1cnc(-c2ccc(NC(=O)Nc3ccccc3)cc2)nc1N1CCOCC1 [MTR-0128, 1-[4-(5-Methoxy-4-morpholin-4-yl-pyrimidin-2-yl)-phenyl]-3-phenyl-urea]	499 ± 45 nM	914 ± 29 nM
COc1cnc(-c2ccc(NC(=O)Nc3ccc(N4CCOCC4=O)cc3)c(F)c2)nc1N1CCOCC1 [MTR-0405, 1-[2-Fluoro-4-(5-methoxy-4-morpholin-4-yl-pyrimidin-2-yl)-phenyl]-3-[4-(3-oxo-morpholin-4-yl)-phenyl]-urea]	74 ± 2 nM	88 ± 6 nM
CSc1c(Cl)nc(-c2ccc(NC(=O)Nc3ccc(C(=O)N4CCN(C)CC4)cc3)cc2)nc1N1CCOCC1 [MTR-0271, 1-[4-(4-Chloro-5-methylsulfanyl-6-morpholin-4-yl-pyrimidin-2-yl)-phenyl]-3-[4-(4-methyl-piperazine-1-carbonyl)-phenyl]-urea]	97 ± 4 nM	155 ± 1 nM
CSc1cnc(-c2ccc(NC(=O)Nc3ccc(NS(C)(=O)=O)cc3)cc2)nc1N1CCOCC1 [MTR-0376, N-(4-{3-[4-(5-Methylsulfanyl-4-morpholin-4-yl-pyrimidin-2-yl)-phenyl]-ureido}-phenyl)-methanesulfonamide]	142 ± 10 nM	595 ± 33 nM
CCOC(=O)c1nc(-c2ccc(NC(=O)Nc3ccc(NC(C)=O)cc3)cc2)nc(N2CCOCC2)c1OCC [MTR-0370, 2-{4-[3-(4-Acetylamino-phenyl)-ureido]-phenyl}-5-ethoxy-6-morpholin-4-yl-pyrimidine-4-carboxylic acid ethyl ester]	92 ± 4 nM	287 ± 5 nM
CCOC(=O)c1nc(-c2ccc(NC(=O)Nc3ccc4oc(=O)[nH]c4c3)cc2)nc(N2CCOCC2)c1OCC [MTR-0299, 5-Ethoxy-6-morpholin-4-yl-2-{4-[3-(2-oxo-2,3-dihydro-benzooxazol-5-yl)-ureido]-phenyl}-pyrimidine-4-carboxylic acid ethyl ester]	384 ± 39 nM	2500 ± 49 nM
CNC(=O)Nc1ccc(-c2nc(-c3ccncc3)c(SC)c(N3CCOCC3)n2)cc1 [MTR-0478, 1-Methyl-3-[4-(5-methylsulfanyl-4-morpholin-4-yl-6-pyridin-4-yl-pyrimidin-2-yl)-phenyl]-urea]	102 ± 1 nM	107 ± 4 nM
COc1cnc(-c2ccc(NC(=O)Nc3cccnc3)cc2)nc1N1CCOCC1 [MTR-0228, 1-[4-(5-Methoxy-4-morpholin-4-yl-pyrimidin-2-yl)-phenyl]-3-pyridin-3-yl-urea]	193 ± 8 nM	1030 ± 114 nM
CCOc1cnc(-c2ccc(NC(=O)Nc3ccncc3)cc2)nc1N1CCOCC1 [MTR-0446, 1-[4-(5-Ethoxy-4-morpholin-4-yl-pyrimidin-2-yl)-phenyl]-3-pyridin-4-yl-urea]	130 ± 8 nM	379 ± 13 nM
CSc1c(Cl)nc(-c2ccc(NC(=O)Nc3ccc(C(=O)N4CCOCC4)cc3)cc2)nc1N1CCOCC1 [MTR-0308, 1-[4-(4-Chloro-5-methylsulfanyl-6-morpholin-4-yl-pyrimidin-2-yl)-phenyl]-3-[4-(morpholine-4-carbonyl)-phenyl]-urea]	62 ± 2 nM	219 ± 11 nM
CCNC(=O)Nc1ccc(-c2nc(-c3ccncc3)c(SC)c(N3CCOCC3)n2)cc1 [MTR-0477, 1-Ethyl-3-[4-(5-methylsulfanyl-4-morpholin-4-yl-6-pyridin-4-yl-pyrimidin-2-yl)-phenyl]-urea]	102 ± 1 nM	122 ± 1 nM
CSc1c(-c2ccncc2)nc(-c2ccc(NC(=O)Nc3ccc(C(N)=O)cc3)cc2)nc1N1CCOCC1 [MTR-0392, 4-{3-[4-(5-Methylsulfanyl-4-morpholin-4-yl-6-pyridin-4-yl-pyrimidin-2-yl)-phenyl]-ureido}-benzamide]	22 nM	188 ± 7 nM
CCOc1c(C(=O)N2CCOCC2)nc(-c2ccc(NC(=O)Nc3ccccc3)cc2)nc1N1CCOCC1 [MTR-0124, 1-{4-[5-Ethoxy-4-(morpholine-4-carbonyl)-6-morpholin-4-yl-pyrimidin-2-yl]-phenyl}-3-phenyl-urea]	390 ± 9 nM	566 ± 12 nM
CSc1cnc(-c2ccc(NC(=O)Nc3ccc(N4CCOCC4=O)cc3)cc2)nc1N1CCOCC1 [MTR-0227, 1-[4-(5-Methylsulfanyl-4-morpholin-4-yl-pyrimidin-2-yl)-phenyl]-3-[4-(3-oxo-morpholin-4-yl)-phenyl]-urea]	49 ± 3 nM	223 ± 20 nM
CCOc1cnc(-c2ccc(NC(=O)Nc3ccc(NC(C)=O)nc3)cc2)nc1N1CCOCC1 [MTR-0442, N-(5-{3-[4-(5-Ethoxy-4-morpholin-4-yl-pyrimidin-2-yl)-phenyl]-ureido}-pyridin-2-yl)-acetamide]	110 ± 10 nM	392 ± 15 nM
CCOC(=O)c1nc(-c2ccc(NC(=O)Nc3ccc(N4CCOCC4=O)cc3)cc2)nc(N2CCOCC2)c1OCC [MTR-0222, 5-Ethoxy-6-morpholin-4-yl-2-(4-{3-[4-(3-oxo-morpholin-4-yl)-phenyl]-ureido}-phenyl)-pyrimidine-4-carboxylic acid ethyl ester]	30 ± 7 nM	88 ± 17 nM
CCOC(=O)c1nc(-c2ccc(NC(=O)Nc3ccc(NC(C)=O)nc3)cc2)nc(N2CCOCC2)c1OCC [MTR-0443, 2-{4-[3-(6-Acetylamino-pyridin-3-yl)-ureido]-phenyl}-5-ethoxy-6-morpholin-4-yl-pyrimidine-4-carboxylic acid ethyl ester]	131 ± 6 nM	529 ± 7 nM
CSc1cnc(-c2ccc(NC(=O)Nc3ccc(N4CCOCC4)cc3)cc2)nc1N1CCOCC1 [MTR-0248, 1-[4-(5-Methylsulfanyl-4-morpholin-4-yl-pyrimidin-2-yl)-phenyl]-3-(4-morpholin-4-yl-phenyl)-urea]	178 ± 27 nM	145 ± 5 nM
CSc1c(-c2ccncc2)nc(-c2ccc(NC(=O)Nc3ccc(N4CCOCC4=O)cc3)cc2)nc1N1CCOCC1 [MTR-0391, 1-[4-(5-Methylsulfanyl-4-morpholin-4-yl-6-pyridin-4-yl-pyrimidin-2-yl)-phenyl]-3-[4-(3-oxo-morpholin-4-yl)-phenyl]-urea]	8 nM	6 nM
CSc1c(-c2cccnc2)nc(-c2ccc(NC(=O)Nc3ccc(N4CCOCC4=O)cc3)cc2)nc1N1CCOCC1 [MTR-0457, 1-[4-(5-Methylsulfanyl-4-morpholin-4-yl-6-pyridin-3-yl-pyrimidin-2-yl)-phenyl]-3-[4-(3-oxo-morpholin-4-yl)-phenyl]-urea]	6.5 ± 0.3 nM	11 ± 0.2 nM
